We go through one molecule from patent US11535611B2, “Pyrazolo[3,4-B]pyridines and imidazo[1,5-B]pyridazines as PDE1 inhibitors” (H. Lundbeck A/S, priority 2017, dated 2022).

Chains of the proteins cited; added tags and fusions are not shown.
UniProt Q01064, whole entry: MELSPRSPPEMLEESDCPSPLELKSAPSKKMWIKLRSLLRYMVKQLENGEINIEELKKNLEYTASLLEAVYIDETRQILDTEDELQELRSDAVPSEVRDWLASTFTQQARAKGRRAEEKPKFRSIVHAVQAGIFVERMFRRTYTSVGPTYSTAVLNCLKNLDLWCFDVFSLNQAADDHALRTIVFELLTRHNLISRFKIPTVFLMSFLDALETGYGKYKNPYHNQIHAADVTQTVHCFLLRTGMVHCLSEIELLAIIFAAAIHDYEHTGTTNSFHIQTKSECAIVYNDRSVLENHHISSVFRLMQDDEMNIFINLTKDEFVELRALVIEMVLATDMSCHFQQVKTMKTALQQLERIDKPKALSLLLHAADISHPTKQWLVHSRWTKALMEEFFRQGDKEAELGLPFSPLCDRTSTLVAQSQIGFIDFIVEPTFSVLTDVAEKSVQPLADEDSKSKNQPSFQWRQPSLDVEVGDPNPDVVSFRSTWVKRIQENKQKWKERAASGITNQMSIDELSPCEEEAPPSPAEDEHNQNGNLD
UniProt P54750, whole entry: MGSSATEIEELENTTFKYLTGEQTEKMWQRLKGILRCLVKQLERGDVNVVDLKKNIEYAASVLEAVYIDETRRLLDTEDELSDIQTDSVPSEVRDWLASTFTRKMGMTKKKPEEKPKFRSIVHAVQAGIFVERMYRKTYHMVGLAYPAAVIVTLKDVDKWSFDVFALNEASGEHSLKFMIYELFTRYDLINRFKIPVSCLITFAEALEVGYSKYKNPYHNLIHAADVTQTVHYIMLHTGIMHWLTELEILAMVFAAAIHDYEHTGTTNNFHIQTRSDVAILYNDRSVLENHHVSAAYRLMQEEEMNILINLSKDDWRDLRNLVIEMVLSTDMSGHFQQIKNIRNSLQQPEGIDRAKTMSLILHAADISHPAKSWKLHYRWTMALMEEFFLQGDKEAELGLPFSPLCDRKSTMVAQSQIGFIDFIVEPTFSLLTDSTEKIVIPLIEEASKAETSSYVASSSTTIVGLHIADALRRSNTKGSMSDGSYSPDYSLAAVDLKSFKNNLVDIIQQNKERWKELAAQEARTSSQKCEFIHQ
UniProt Q14123, whole entry: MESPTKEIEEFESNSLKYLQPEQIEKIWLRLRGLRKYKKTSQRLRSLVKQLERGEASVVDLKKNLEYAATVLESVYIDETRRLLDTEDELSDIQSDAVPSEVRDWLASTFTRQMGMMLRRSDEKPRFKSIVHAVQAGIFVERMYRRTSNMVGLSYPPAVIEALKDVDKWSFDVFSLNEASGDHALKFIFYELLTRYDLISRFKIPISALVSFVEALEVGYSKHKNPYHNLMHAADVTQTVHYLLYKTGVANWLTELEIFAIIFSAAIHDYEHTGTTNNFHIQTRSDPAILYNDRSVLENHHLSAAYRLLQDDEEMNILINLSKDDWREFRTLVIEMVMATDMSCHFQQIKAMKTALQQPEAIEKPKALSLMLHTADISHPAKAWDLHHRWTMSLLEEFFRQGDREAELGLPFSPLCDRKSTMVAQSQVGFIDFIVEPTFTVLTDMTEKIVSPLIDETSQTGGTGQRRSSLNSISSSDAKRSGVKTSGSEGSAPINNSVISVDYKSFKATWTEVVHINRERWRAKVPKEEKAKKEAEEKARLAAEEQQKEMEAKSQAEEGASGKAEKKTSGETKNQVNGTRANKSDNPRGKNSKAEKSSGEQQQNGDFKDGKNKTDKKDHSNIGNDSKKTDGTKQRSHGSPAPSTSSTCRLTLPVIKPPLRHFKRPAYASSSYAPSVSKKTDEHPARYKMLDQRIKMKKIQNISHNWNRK

One experiment has as its target PDE1B (Homo sapiens (Human), UniProt Q01064). The experiment in a line: PDE1 inhibition assay, PDE1B. The following applies: read-out: PDE1 B, IC50; 15 nM tritium labelled cAMP, 1 hr at room temperature, SPA beads.
Another experiment has as its target PDE1A (Homo sapiens (Human), UniProt P54750). In words: PDE1 inhibition assay, PDE1A. Type of experiment: biochemical. As to conditions: @ 10 μM compound.
The target in another experiment is PDE1C (Homo sapiens (Human), UniProt Q14123). The experiment in a line: PDE1 inhibition assay, PDE1C. Type of experiment: biochemical. As to conditions: read-out: PDE1 C, IC50; 15 nM tritium labelled cAMP, 1 hr at room temperature, SPA beads.

The term IC50 denotes the point on the concentration scale where inhibition reaches its midpoint. `CCOc1cncc(-c2cc(N[C@@H]3CCOC3)c3c(cnn3C(C)C)n2)c1`: the IC50 turned out to be 1570 nM on PDE1B and 2920 nM at PDE1C. For the same molecule, the “PDE1 A, % inhibition @ 10 μM” value on PDE1A is listed as 51%.
